Measurements published in publication PMC4106271 (Journal of Medicinal Chemistry, 2014).
Values joined by “and” are separate entries in the source; they are usually repeats but may differ in a detail not shown here. Equal values may be shown once.

Amino acid sequences for entries named in this document (tags omitted). Residues count along the entry.
UniProt P14867, 28-456: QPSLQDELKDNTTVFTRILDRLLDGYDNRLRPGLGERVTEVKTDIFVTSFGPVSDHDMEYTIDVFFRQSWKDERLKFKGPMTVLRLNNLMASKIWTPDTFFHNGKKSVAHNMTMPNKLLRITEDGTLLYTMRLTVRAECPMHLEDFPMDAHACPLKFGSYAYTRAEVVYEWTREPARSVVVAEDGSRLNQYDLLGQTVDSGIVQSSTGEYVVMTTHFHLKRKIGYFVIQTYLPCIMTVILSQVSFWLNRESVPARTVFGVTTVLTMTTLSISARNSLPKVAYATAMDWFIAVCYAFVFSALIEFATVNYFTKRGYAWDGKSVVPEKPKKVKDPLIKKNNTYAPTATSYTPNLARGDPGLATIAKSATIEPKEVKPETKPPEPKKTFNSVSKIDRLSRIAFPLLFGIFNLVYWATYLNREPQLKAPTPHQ
UniProt P47870, 26-512: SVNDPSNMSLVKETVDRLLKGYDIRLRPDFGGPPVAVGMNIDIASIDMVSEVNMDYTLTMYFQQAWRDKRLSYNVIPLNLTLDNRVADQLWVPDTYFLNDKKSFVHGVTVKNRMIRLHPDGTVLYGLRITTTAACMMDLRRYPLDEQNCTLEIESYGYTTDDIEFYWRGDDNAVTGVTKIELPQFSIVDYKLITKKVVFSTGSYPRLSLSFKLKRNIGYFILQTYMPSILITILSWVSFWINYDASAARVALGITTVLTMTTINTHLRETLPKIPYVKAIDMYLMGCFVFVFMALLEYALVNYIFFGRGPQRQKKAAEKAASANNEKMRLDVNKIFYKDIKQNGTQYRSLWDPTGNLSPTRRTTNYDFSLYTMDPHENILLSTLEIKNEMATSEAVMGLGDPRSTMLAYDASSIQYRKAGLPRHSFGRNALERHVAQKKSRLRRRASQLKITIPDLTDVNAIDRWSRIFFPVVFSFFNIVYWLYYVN
UniProt P31644, 32-462: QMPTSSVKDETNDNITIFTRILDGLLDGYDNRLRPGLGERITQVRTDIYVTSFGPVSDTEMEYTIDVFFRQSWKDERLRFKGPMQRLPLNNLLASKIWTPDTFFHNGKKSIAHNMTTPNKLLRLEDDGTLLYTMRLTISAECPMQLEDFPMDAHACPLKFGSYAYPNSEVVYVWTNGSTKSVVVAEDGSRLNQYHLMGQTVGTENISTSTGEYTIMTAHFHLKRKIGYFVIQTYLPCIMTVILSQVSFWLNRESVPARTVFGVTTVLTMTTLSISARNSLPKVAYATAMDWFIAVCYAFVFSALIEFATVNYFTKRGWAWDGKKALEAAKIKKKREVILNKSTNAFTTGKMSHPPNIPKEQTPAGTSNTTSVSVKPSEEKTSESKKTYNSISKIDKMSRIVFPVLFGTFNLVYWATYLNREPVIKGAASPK
UniProt P18505, 26-474: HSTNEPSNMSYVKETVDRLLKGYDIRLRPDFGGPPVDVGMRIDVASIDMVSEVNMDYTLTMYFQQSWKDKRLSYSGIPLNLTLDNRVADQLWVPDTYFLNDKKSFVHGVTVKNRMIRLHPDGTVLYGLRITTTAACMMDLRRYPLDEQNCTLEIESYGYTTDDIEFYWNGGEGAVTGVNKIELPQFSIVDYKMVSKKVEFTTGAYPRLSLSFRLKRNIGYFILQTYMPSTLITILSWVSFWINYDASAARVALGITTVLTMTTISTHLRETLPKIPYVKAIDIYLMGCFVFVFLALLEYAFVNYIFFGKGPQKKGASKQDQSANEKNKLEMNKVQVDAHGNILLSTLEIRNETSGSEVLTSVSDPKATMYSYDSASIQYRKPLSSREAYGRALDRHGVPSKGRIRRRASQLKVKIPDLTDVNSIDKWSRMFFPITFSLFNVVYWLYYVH
UniProt P47869, 29-451: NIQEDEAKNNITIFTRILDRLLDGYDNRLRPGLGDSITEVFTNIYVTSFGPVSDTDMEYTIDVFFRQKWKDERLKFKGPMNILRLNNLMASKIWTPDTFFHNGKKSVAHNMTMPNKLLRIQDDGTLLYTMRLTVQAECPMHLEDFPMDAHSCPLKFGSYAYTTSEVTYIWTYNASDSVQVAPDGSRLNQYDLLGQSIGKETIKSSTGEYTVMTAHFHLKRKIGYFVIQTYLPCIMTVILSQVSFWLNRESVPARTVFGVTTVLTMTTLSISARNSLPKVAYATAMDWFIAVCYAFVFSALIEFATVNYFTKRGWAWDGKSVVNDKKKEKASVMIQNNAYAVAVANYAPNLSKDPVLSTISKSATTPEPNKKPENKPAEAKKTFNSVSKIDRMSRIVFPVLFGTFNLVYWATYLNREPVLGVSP
UniProt P28472, 26-473: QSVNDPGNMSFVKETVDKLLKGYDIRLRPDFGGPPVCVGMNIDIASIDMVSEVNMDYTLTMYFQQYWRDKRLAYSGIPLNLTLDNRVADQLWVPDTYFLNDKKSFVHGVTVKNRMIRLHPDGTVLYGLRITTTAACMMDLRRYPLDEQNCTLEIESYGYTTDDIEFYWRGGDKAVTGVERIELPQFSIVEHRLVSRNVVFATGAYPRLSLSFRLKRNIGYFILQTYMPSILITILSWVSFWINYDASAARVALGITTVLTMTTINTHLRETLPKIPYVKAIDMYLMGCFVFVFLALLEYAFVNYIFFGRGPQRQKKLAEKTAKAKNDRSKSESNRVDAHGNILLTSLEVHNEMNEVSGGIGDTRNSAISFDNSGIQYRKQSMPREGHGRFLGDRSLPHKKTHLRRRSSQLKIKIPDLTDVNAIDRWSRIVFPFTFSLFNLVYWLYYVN
UniProt P34903, 29-492: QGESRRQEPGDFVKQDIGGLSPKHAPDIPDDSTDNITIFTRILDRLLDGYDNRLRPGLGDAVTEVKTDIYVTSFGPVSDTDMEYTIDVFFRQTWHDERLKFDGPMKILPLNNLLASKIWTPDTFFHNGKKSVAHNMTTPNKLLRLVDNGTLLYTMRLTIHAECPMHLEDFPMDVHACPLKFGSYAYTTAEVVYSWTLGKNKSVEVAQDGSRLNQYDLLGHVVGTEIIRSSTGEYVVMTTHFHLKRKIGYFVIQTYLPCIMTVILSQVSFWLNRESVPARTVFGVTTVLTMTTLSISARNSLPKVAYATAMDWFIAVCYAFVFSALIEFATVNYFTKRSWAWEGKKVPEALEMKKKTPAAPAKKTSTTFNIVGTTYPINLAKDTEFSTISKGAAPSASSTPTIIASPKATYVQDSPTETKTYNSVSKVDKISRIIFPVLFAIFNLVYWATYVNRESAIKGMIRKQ
UniProt P48169, 36-554: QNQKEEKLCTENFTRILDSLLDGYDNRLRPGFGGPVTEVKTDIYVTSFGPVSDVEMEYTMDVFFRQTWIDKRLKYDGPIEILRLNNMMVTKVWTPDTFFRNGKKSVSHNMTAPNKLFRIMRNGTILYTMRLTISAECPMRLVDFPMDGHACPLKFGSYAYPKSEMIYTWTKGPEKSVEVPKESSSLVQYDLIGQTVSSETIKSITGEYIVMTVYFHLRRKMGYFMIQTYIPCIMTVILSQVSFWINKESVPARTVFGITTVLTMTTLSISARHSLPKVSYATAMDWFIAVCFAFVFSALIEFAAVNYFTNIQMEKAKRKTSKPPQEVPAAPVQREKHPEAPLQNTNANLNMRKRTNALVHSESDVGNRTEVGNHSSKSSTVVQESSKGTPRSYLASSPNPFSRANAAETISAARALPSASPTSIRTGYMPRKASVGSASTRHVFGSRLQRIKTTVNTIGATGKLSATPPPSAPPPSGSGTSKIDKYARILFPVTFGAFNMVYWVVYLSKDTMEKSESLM

Columns and labels:
Assay type in all cases: cell-based
α1β2γ2S GABAA receptors = molecular target: T1, α1β2γ2S GABAA receptors (Homo sapiens, UniProt P14867+P47870); experiment: Two-microelectrode voltage clamp, IGABA modulation, α1β2γ2S; details: mean ± SEM; for Emax: maximal IGABA enhancement, GABA EC3–7, Xenopus oocytes, read-out: IGABA-max (%)
T1 construct: expressed in transfected cells; host or cells: Xenopus laevis oocytes injected with cRNA (pCMV cDNA templates)
Method: (§1) Preparation of stage V–VI oocytes from X. laevis and synthesis of capped runoff poly(A) cRNA transcripts from linearized cDNA templates (pCMV vector) was performed as previously described.[49] Female X. laevis frogs (Nasco) were anesthetized by 15 min incubation in a 0.2% MS-222 (methanesulfonate salt of 3-aminobenzoic acid ethyl ester; Sigma–Aldrich, Vienna, Austria) solution before removal of parts of the ovaries. Follicle membranes from isolated oocytes were enzymatically digested with 2 mg/mL collagenase (type 1A, Sigma–Aldrich, Vienna, Austria).
(§2) Selected oocytes were injected with 10–50 nL of DEPC-treated water (diethyl pyrocarbonate, Sigma, Vienna, Austria) containing the different GABAA cRNAs at a concentration of approximately 300–3000 pg·nL^–1·subunit^–1.
(§3) To ensure expression of the γ2S subunit in the case of α1/2/3/5β2/3γ2S receptors, cRNAs were mixed in a ratio of 1:1:10. For expression of receptors composed of α4β2γ2S and α1β1γ2S, cRNAS were mixed in a ratio of 3:1:10. The amount of cRNAs was determined by means of a NanoDrop ND-1000 (Kisker-Biotech, Steinfurt, Germany).
(§4) Oocytes were stored at +18 °C in modified ND96 solution (90 mM NaCl, 1 mM CaCl2, 1 mM KCl, 1 mM MgCl2·6H2O, and 5 mM HEPES [4-(2-hydroxyethyl)-1-piperazineethanesulfonic acid], pH 7.4, all from Sigma–Aldrich, Vienna, Austria).
(§5) Chloride currents through GABAA receptors (IGABA) were measured at room temperature (+21 ± 1 °C) by means of a two-microelectrode voltage clamp technique making use of a Turbo TEC-05X amplifier (npi electronic, Tamm, Germany). IGABA were elicited at a holding potential of –70 mV. Data acquisition was carried out by means of an Axon Digidata 1322A interface using pCLAMP v.10 (Molecular Devices, Sunnyvale, CA). The modified ND96 solution was used as bath solution. Microelectrodes were filled with 2 M KCl and had resistances between 1 and 3 MΩ.
GABA and the studied derivatives were applied by means of the ScreeningTool (npi electronic, Tamm, Germany) fast perfusion system as described previously.[50] To elicit IGABA, the chamber was perfused with 120 μL of GABA- or compound-containing solution at a volume rate of 300 μL/s.[34] Care was taken to account for possible slow recovery from increasing levels of desensitization in the presence of high drug concentrations. The duration of washout periods was therefore extended from 1.5 min (<10 μM compounds) to 30 min (≥10 μM compounds). Oocytes with maximal current amplitudes >3 μA were discarded to exclude voltage clamp errors.
Stimulation of chloride currents by modulators of the GABAA receptor was measured at a GABA concentration eliciting between 3% and 7% of the maximal current amplitude (EC3–7). The GABA EC3–7 was determined for each oocyte individually. Enhancement of the chloride current was defined as (IGABA+compd/IGABA) – 1, where IGABA+compd is the current response in the presence of a given compound and IGABA is the control GABA current. IGABA-max reflects the maximal IGABA enhancement. Concentration–response curves were generated and the data were fitted by nonlinear regression analysis using Origin Software (OriginLab Corp.). Data were fitted to the equation 1/(1 + (EC50/[compound])^nH), where nH is the Hill coefficient. Each data point represents the mean ± SEM from at least three oocytes and ≥2 oocyte batches. Statistical significance was calculated by paired Student t-test with a confidence interval of <0.05.

α5β2γ2S GABAA receptors = molecular target: T2, α5β2γ2S GABAA receptors (Homo sapiens, UniProt P31644+P47870); experiment: Two-microelectrode voltage clamp, IGABA modulation, α5β2γ2S; details: Xenopus oocytes
T2 construct: expressed in transfected cells; host or cells: Xenopus laevis oocytes injected with cRNA (pCMV cDNA templates)
Method: as §1, with “Austria). […]” for “Austria).”
(§6) To ensure expression of the γ2S subunit in the case of α1/2/3/5β2/3γ2S receptors, cRNAs were mixed in a ratio of 1:1:10. […] The amount of cRNAs was determined by means of a NanoDrop ND-1000 (Kisker-Biotech, Steinfurt, Germany). […]
(§7) Chloride currents through GABAA receptors (IGABA) were measured at room temperature (+21 ± 1 °C) by means of a two-microelectrode voltage clamp technique making use of a Turbo TEC-05X amplifier (npi electronic, Tamm, Germany). […]
(§8) Stimulation of chloride currents by modulators of the GABAA receptor was measured at a GABA concentration eliciting between 3% and 7% of the maximal current amplitude (EC3–7). The GABA EC3–7 was determined for each oocyte individually. […] Statistical significance was calculated by paired Student t-test with a confidence interval of <0.05.

α1β1γ2S GABAA receptors = molecular target: T3, α1β1γ2S GABAA receptors (Homo sapiens, UniProt P14867+P18505); experiment: Two-microelectrode voltage clamp, IGABA modulation, α1β1γ2S; details: Xenopus oocytes
T3 construct: expressed in transfected cells; host or cells: Xenopus laevis oocytes injected with cRNA (pCMV cDNA templates)
Method: as §1, with “Austria). […]” for “Austria).”
as §6, §7, §8

α2β2γ2S GABAA receptors = molecular target: T4, α2β2γ2S GABAA receptors (Homo sapiens, UniProt P47869+P47870); experiment: Two-microelectrode voltage clamp, IGABA modulation, α2β2γ2S; details: Xenopus oocytes
T4 construct: expressed in transfected cells; host or cells: Xenopus laevis oocytes injected with cRNA (pCMV cDNA templates)
Method: as §1, with “Austria). […]” for “Austria).”
as §6, §7, §8

α1β3γ2S GABAA receptors = molecular target: T5, α1β3γ2S GABAA receptors (Homo sapiens, UniProt P14867+P28472); experiment: Two-microelectrode voltage clamp, IGABA modulation, α1β3γ2S; details: α1β3γ2S, Xenopus oocytes
T5 construct: expressed in transfected cells; host or cells: Xenopus laevis oocytes injected with cRNA (pCMV cDNA templates)
Method: as §1, §2, §3, §4
as §5, with “The modified ND96 solution was used as bath solution. Microelectrodes were filled with 2 M KCl and had resistances between 1 and 3 MΩ.” left out
as §8

α3β2γ2S GABAA receptors = molecular target: T6, α3β2γ2S GABAA receptors (Homo sapiens, UniProt P34903+P47870); experiment: Two-microelectrode voltage clamp, IGABA modulation, α3β2γ2S; details: Xenopus oocytes
T6 construct: expressed in transfected cells; host or cells: Xenopus laevis oocytes injected with cRNA (pCMV cDNA templates)
Method: as §1, with “Austria). […]” for “Austria).”
as §6, §7, §8

α4β2γ2S GABAA receptors = molecular target: T7, α4β2γ2S GABAA receptors (Homo sapiens, UniProt P47870+P48169); experiment: Two-microelectrode voltage clamp, IGABA modulation, α4β2γ2S; details: Xenopus oocytes
T7 construct: expressed in transfected cells; host or cells: Xenopus laevis oocytes injected with cRNA (pCMV cDNA templates)
Method: as §1, with “Austria). […]” for “Austria).”
as §6, §7, §8

[1] = 100 μM compound, GABA EC3–7, Xenopus laevis oocytes

| Compound | activation at 100 µM (α1β2γ2S GABAA receptors; [1]) | further results |
| --- | --- | --- |
| O=C(/C=C/c1cccc2cc3c(cc12)OCO3)N1CCCCC1 [Compound 65] | 105 ± 18% | – |
| CCCN(CCC)C(=O)c1ccc(-c2ccc3c(c2)OCO3)s1 [Compound 59] | 134 ± 39% | – |
| O=C(c1cccc(-c2ccc3c(c2)OCO3)c1)N1CCCCC1 [Compound 50] | 178% | modulation of IGABA (%) (α1β2γ2S GABAA receptors; [1]): 178 ± 32 % |
| CCN(CC)C(=O)/C=C/C=C/c1ccc2c(c1)OCO2 [Compound 21] | 258 ± 28% | – |
| O=C(/C=C/C=C/c1ccc2c(c1)OCO2)N(CC(F)(F)F)CC(F)(F)F [Compound 43] | 445 ± 74% | Emax (α1β2γ2S GABAA receptors): 505 ± 24% |
| C[C@@H]1CCC[C@H](C)N1C(=O)/C=C/C=C/c1ccc2c(c1)OCO2 [Compound 38] | 218 ± 43% | – |
| CCCN(CCC)C(=O)/C=C/C=C/c1ccc2c(c1)OCO2 [Compound 23, (2E,4E)-5-(1,3-benzodioxol-5-yl)-N,N-dipropyl-2,4-pentadienamide] | – | IGABA,max (%) (α5β2γ2S GABAA receptors): 1624% ± 156% and 1624 ± 156%; IGABA,max (%) (α1β1γ2S GABAA receptors): 1157% ± 69% and 1157 ± 69 %; IGABA,max (%) (α2β2γ2S GABAA receptors): 980% ± 129% and 980 ± 129 %; IGABA,max (%) (α1β3γ2S GABAA receptors): 1240 ± 128%; IGABA,max (%) (α3β2γ2S GABAA receptors): 1284.6% ± 142% and 1285 ± 142%; IGABA,max (%) (α4β2γ2S GABAA receptors): 1316% ± 55% and 1316 ± 55 % |
| CC(C)N(C(=O)/C=C/C=C/c1ccc2c(c1)OCO2)C(C)C [Compound 22] | 986 ± 244% | – |
| O=C(/C=C/C=C/c1ccc2c(c1)OCO2)N1CCCC(C(F)(F)F)C1 (stereo not shown) [Compound 39] | 183 ± 20% | – |
| CC(C)N(C(=O)c1cccc(-c2ccc3c(c2)OCO3)c1)C(C)C [Compound 53] | 298 ± 31% | Emax (α1β2γ2S GABAA receptors): 388 ± 64% |
| CC1CCCN(C(=O)/C=C/C=C/c2ccc3c(c2)OCO3)C1 (stereo not shown) [Compound 34] | 439 ± 31% | – |
